Reference: paper PMC12563520, “Asiatic Acid from Centella asiatica as a Potent EGFR Tyrosine Kinase Inhibitor with Anticancer Activity in NSCLC Cells Harboring Wild-Type and T790M-Mutated EGFR” (Biomolecules, 2025)

Key:
[1] = biological target: T1, wild-type EGFR (Homo sapiens, UniProt P00533); experiment: ADP-Glo kinase assay, wild-type EGFR; type: biochemical; details: read-out: IC50 kinase inhibition, Wild-Type EGFR, mean ± SEM (n = 3)
T1 construct: purchased Sigma-Aldrich SRP0239

[2] = biological target: T2, L858R/T790M EGFR (Homo sapiens, UniProt P00533, L858R/T790M); experiment: ADP-Glo kinase assay, double-mutant EGFR; type: biochemical; details: read-out: IC50 kinase inhibition, L858R/T790M EGFR, mean ± SEM (n = 3)
T2 construct: purchased Sigma-Aldrich SRP0242

Substance: asiaticoside
- IC50 [1]: > 80 nM
- IC50 [2]: > 80 nM
